Assays:
CCR2 = CCR2 (Homo sapiens, UniProt P41597); experiment: Cold competition ligand binding to hCCR2 using 125I-human MCP-1
human CCR2 [1] = target: T1, human CCR2 (Homo sapiens, UniProt P41597); experiment: cell-based
T1 sequence (P41597 1-360 isoform P41597-2): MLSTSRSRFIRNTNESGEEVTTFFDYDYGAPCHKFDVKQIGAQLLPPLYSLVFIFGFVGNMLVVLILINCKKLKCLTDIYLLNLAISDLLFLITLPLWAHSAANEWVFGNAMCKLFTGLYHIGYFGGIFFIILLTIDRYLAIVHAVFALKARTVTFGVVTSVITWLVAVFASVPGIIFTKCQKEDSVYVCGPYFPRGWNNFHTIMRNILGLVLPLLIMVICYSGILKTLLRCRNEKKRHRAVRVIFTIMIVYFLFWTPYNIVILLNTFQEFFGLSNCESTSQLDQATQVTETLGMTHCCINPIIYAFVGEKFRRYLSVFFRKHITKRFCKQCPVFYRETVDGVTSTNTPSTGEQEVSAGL

human CCR2 [2] = target: T1, human CCR2; experiment: biochemical
human CCR2 [3] = target: T1, human CCR2; experiment: Human peripheral blood mononuclear cell binding (CCR2 binding), 125I-human MCP-1 tracer; design: hPBMCs were isolated from human leukopak (Biological Specialty Inc.) using a standard protocol with Ficoll-Hypaque; endogenous in cells; host or cells: human peripheral blood mononuclear cells (hPBMCs); conditions: mean ± SD (n in parentheses)
Protocol: See also: Yoshimura et al., J. Immunol. 1990, 145, 292. The human CCR2 binding assay was established with human peripheral blood mononuclear cells (hPBMCs) using ^125I-human MCP-1 as the tracer ligand. hPBMCs were isolated from human leukopak (Biological Specialty Inc.) using a standard protocol with Ficoll-Hypaque (Mediatech Cellgro). Isolated hPBMCs were washed and diluted to 1×10^7/ml in binding buffer (RPMI-1640, 0.1% BSA, 20 mM Hepes, pH 7.4). ^125I-MCP-1 (NEN/Perk Elmer) was diluted to 0.45 nM in binding buffer. The compound was diluted in binding buffer at 3-fold the final concentrations used in the binding assay. The binding assay was performed using a 96-well filter plate (Millipore). Total ^125I-MCP-1 binding was assessed as follows: to each reaction of a total volume of 150 μl were added 5×10^5 cells, 0.15 nM ^125I-MCP-1, and compound such that the final concentration ranged from 0 to 100 nM. The plate was incubated at room temperature for 30 minutes followed by three washes with RPMI-1640, 0.1% BSA, 0.4 M NaCl, 20 mM Hepes, pH 7.4 using a vacuum manifold filtration (Millipore). […] The plate was sealed and counted on the Trilux for 1 minute. Non-specific binding was determined in the presence of 300 nM cold MCP-1 (PeproTech Inc.). Specific ^125I-MCP-1 was calculated as the difference between total and non-specific binding. […]

human CCR2 [4] = target: T1, human CCR2; experiment: CCR2 chemotaxis, MCP-1-induced, THP-1 cells; type: cell-based; design: hPBMCs were isolated from human leukopak (Biological Specialty Inc.) using a standard protocol with Ficoll-Hypaque; endogenous in cells; host or cells: human peripheral blood mononuclear cells (hPBMCs); conditions: number in brackets = n
Protocol: The human CCR2 chemotaxis assay was conducted with the human monocytic cell line, THP-1. THP-1 cells were first labeled with the fluorescent dye Calcein-AM in phenol red-free, BSA-free RPMI-1640 (pH 7.4) at 37° C. for 30 minutes with gentle mixing every 15 minutes. The labeled cells were then washed and re-suspended at 1×10^5/ml in chemotaxis buffer (phenol red-free RPMI-1640, 0.1% BSA, pH 7.4). The test compound was diluted in chemotaxis buffer such that the final assay concentration ranged from 0.01 nM to 1 μM. The ligand MCP-1 (PeproTech Inc.) was diluted to 20 nM in chemotaxis buffer. To perform the assay, an equal volume of test compound dilutions was mixed with an equal volume of labeled THP-1 cells (Mixture 1), and an equal volume of test compound dilutions was mixed with an equal volume of diluted MCP-1 ligand (Mixture 2). Both mixtures were incubated independently at 37° C. for 10 minutes followed by gentle mixing. MCP-1-induced chemotaxis was then measured in a chemotaxis plate (Becton Dickinson) by placing 50 μl of Mixture 1 in the top chamber and 225 μl of Mixture 2 in the bottom chamber. The plate was covered with a lid and incubated at 37° C. for 30 minutes. 30 minutes later, the plate was read on a Cytofluor. […] The inhibition achieved by graded concentrations of test compound was calculated as a percentage of the compound-free MCP-1 control.

Compound: CC(=O)N[C@@H]1C[C@H](N(C)C(C)C)CC[C@@H]1N1CC[C@H](Nc2ncnc3ccc(C(F)(F)F)cc23)C1=O [Example 1, N-((1R,2S,5R)-5-(isopropyl(methyl)amino)-2-((S)-2-oxo-3-(6-(trifluoromethyl)quinazolin-4-ylamino)pyrrolidin-1-yl)cyclohexyl)acetamide]
- Ki (CCR2): 1.2 nM
- IC50 (human CCR2 [1]): 0.6 ± 0.3 nM
- IC50 (human CCR2 [2]): 2.2 ± 1.2 nM
- IC50 (human CCR2 [3]): 1.14 ± 0.69 nM
- IC50 (human CCR2 [4]): 0.67 ± 0.42 nM
